Test results reported in ChEMBL document CHEMBL4613223, “Structure-based design of guanosine analogue inhibitors targeting GTP cyclohydrolase IB towards a new class of antibiotics” (Bioorg Med Chem Lett, 2020).

Assay: Ratio of IC50 for full-length human GCYH1A expressed in Escherichia coli to IC50 for Neisseria gonorrhoeae GCYH1B

SMILES: Nc1nc(OC[C@H](O)CO)c2[nH]c(=O)n([C@@H]3O[C@H](CO)[C@@H](O)[C@H]3O)c2n1
- Ratio IC50: 3
